# Apparent affinities of Ab-14 variants for a coronavirus HR2 peptide

Target: peptide PDVDLGDISGINAS, taken from heptad repeat 2 (HR2) of SARS-CoV-2 spike.

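The parent was found by panning a naive human phage display library on the peptide. These sequences belong to a second round, designed from the earlier measurements on random variants of the parent. Their group label is 14H_En_Gen (En: ensemble of fine-tuned language models; Gen: genetic algorithm). Affinity was read by AlphaSeq, a pooled yeast mating assay with surface-displayed partners. Pairs that bind mate more often; barcode pairs of the diploids are counted by sequencing. A regression on co-assayed BCL2-family reference pairs converts the normalised counts of each replicate to an apparent Kd. The assay was run in six technical replicates.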

Parent: Ab-14, a human scFv built as VH, a (GGGGS)3 linker, VL. Only the CDRs of the heavy chain vary.
VH: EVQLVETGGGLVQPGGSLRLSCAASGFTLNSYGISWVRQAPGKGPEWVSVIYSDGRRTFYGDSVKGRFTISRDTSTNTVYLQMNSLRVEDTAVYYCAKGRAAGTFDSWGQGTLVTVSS
VL: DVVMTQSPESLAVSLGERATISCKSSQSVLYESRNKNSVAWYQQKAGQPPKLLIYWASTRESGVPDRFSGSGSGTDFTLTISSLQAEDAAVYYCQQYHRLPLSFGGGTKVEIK

The parent's heavy chain CDRs are GFTLNSYGIS, VIYSDGRRTFYGDSVK, GRAAGTFDS; each variant's own CDRs replace them letter for letter.
Affinities are written as log10 Kd with Kd in nM; a lower number is a better binder.
"n.d." marks a missing value. The strain was present, yet no cells mated with the target were sequenced in that replicate, which points to weak or no binding.
In the paper, a design with two or fewer of six values counts as a poor binder.
Of ten entries with the parent sequence, four were seen in most replicates (averages 0.34 to 2.37), three in one and three in none, so single entries are noisy.
Values of this round are not directly comparable with the first-round values of the same sequences.
Background: pairings of all heavy chain designs with three empty control strains gave a value in 1% of cases (median 2.08, 5th percentile 0.84). Values in that range, when seen in few replicates, are hard to tell from nonspecific mating. For each scFv, signals with the empty controls are counted beside the result, with their mean in brackets.

| # | CDR-H1 | CDR-H2 | CDR-H3 | log10 Kd, replicates | signal with controls |
|---|---|---|---|---|---|
| 1 | GFDLNEYGIS | VIYADGKRKAYADSVK | GNVAGTFDV | -0.32 -0.93 -0.57 -0.90 -0.80 -0.37 | 0 of 18 |
| 2 | GFDLNEYGIS | VIYADGMRTAYADDVK | GETAGTFDI | -0.24 -0.46 -0.78 -0.80 -0.78 -0.36 | 0 of 18 |
| 3 | GFDLDEYGIS | VIYADGRRTAYTDSVK | GENAGTFDV | 0.65 1.19 1.11 -0.11 0.06 0.49 | 0 of 18 |
| 4 | GFDLNEYGIS | VIYADGKRTAYSDSVK | GETAGTFDT | 1.59 -0.29 -0.65 0.14 1.93 -0.32 | 0 of 18 |
| 5 | GFDLNEYGIS | VIYADGKRTSYVDSVK | GNVAGTFDV | 0.19 0.30 -0.14 -0.25 -0.19 -0.15 | 0 of 18 |
| 6 | GFDLNEYGIS | VIYADGVRTAYADSVK | GGNAGTFDV | 0.80 0.49 0.63 0.49 0.54 0.95 | 1 of 18 (1.91) |
| 7 | GFDLDEYGIS | VIYADGKRTAYADDVK | GQNAGTFDV | n.d. n.d. 0.57 -0.59 -1.27 -0.23 | 0 of 18 |
| 8 | GFDLNEYGIS | VIYADGKRTAYSDSVK | GQNAGTFDI | -0.86 -0.82 -0.95 -0.96 -0.91 -0.18 | 0 of 18 |
| 9 | GFDLNEYGIS | VIYADGVRTAYADDVK | GSNAGTFDV | -0.79 -0.94 -0.79 -0.14 -0.76 0.31 | 0 of 18 |
| 10 | GFDLNEYGIS | VIYADGMRTAYTDNVK | GENAGTFDV | 0.22 -0.01 -0.31 -0.29 -0.16 0.26 | 1 of 18 (1.43) |
| 11 | GFDLDEYGIS | VIYADGMRTAYVDSVK | GENAGTFDI | 0.77 0.35 0.50 -0.27 2.66 0.73 | 0 of 18 |
| 12 | GFDLNEYGIS | VIYADGKRTAYSDSVK | GENAGTFDI | -0.69 -0.14 -0.86 -0.76 -0.55 -0.37 | 0 of 18 |
| 13 | GFDLNEYGIS | VIYADGRRTAYTDSVK | GTNAGTFDV | -0.56 -0.64 -0.39 -0.90 -0.76 -0.04 | 0 of 18 |
| 14 | GFDLNEYGIS | VIYADGMRTAYVDSVK | GNVAGTFDT | -0.46 -0.88 -0.52 -0.97 -0.80 -0.43 | 0 of 18 |
| 15 | GFDLEEYGIS | VIYADGQRTAYADDVK | GNVAGTFDV | -0.19 0.32 -0.18 -0.28 0.15 -0.52 | 0 of 18 |
| 16 | GFDLNEYGIS | VIYADGVRTFYADDVK | GNVAGTFDV | -0.35 -0.08 -0.61 -0.41 -0.24 -0.30 | 0 of 18 |
| 17 | GFDLNEYGIS | VIYADGKRTAYADSVK | GQVAGTFDM | -0.62 -0.61 -0.82 -0.97 -0.66 -0.49 | 0 of 18 |
| 18 | GFDLNEYGIS | VIYADGKRTSYADSVK | GNVAGTFDL | 1.27 0.79 -0.82 -1.37 -0.79 n.d. | 0 of 18 |
| 19 | GFDLDEYGIS | VIYADGSRTAYSDSVK | GNEAGTFDV | 0.40 0.49 0.32 -0.08 0.13 0.63 | 1 of 18 (1.31) |
| 20 | GFDLNEYGIS | VIYADGMRTAYVDNVK | GENAGTFDV | -0.39 -0.47 -0.64 -0.69 -0.62 -0.57 | 0 of 18 |
| 21 | GFDLNEYGIS | VIYADGMRTFYADDVK | GNVAGTFDT | 0.16 0.16 -0.18 -0.29 0.09 -0.17 | 1 of 18 (2.19) |
| 22 | GFDLNEYGIS | VIYADGSRTAYSDSVK | GEVAGTFDM | 0.16 -0.21 -0.20 -0.18 -0.63 0.25 | 2 of 18 (1.77) |
| 23 | GFDLNEYGIS | VIYADGRRTAYADDVK | GTNAGTFDI | n.d. n.d. n.d. n.d. n.d. n.d. | 1 of 18 (0.22) |
| 24 | GFDLNEYGIS | VIYADGSRTVYADSVK | GNVAGTFDT | -0.52 -0.44 -0.84 -0.72 -0.78 -0.51 | 0 of 18 |
| 25 | GFDLNEYGIS | VIYADGMRTAYADDVK | GNQAGTFDI | -0.38 -0.57 -0.50 -0.47 -0.48 -0.13 | 1 of 18 (3.26) |
| 26 | GFDLNEYGIS | VIYADGVRTAYADDVK | GNQAGTFDI | -0.56 -0.24 -0.34 -0.74 -0.74 -0.53 | 1 of 18 (2.51) |
| 27 | GFDLNEYGIS | VIYADGSRTAYIDSVK | GNVAGTFDL | -0.54 -0.48 -0.28 -0.18 -0.33 -0.43 | 0 of 18 |
| 28 | GFDLNEYGIS | VIYADGVRTAYSDSVK | GHNAGTFDV | 0.09 -0.70 0.18 -0.34 -0.16 -0.61 | 0 of 18 |
| 29 | GFDLNEYGIS | VIYADGVRTAYADSVK | GEAAGTFDV | 0.07 -0.15 -0.28 -0.10 -0.55 -0.46 | 0 of 18 |
| 30 | GFDLDEYGIS | VIYADGMRTAYADDVK | GNVAGTFDL | -0.76 -0.61 -1.43 -1.13 -1.09 -0.18 | 0 of 18 |
| 31 | GFDLDEYGIS | VIYADGKRTAYSDSVK | GNVAGTFDQ | -0.85 -1.10 -0.99 -1.16 -1.67 -0.85 | 0 of 18 |
| 32 | GFDLNEYGIS | VIYADGMRKAYADDVK | GNVAGTFDI | -0.81 -0.27 -0.42 -0.92 -0.69 -0.58 | 0 of 18 |
| 33 | GFDLNEYGIS | VIYADGVRTAYADSVK | GETAGTFDM | -0.49 -0.60 -0.75 -0.31 -0.65 -0.70 | 0 of 18 |
| 34 | GFDLNEYGIS | VIYADGQRKAYADSVK | GENAGTFDI | -0.86 -0.77 -0.91 -1.01 -1.00 -0.82 | 0 of 18 |
| 35 | GFDLDEYGIS | VIYADGKRTAYANSVK | GNVAGTFDL | -0.13 -0.29 -0.30 -0.46 -0.21 0.00 | 1 of 18 (2.16) |
| 36 | GFDLNEYGIS | VIYADGMRTAYSDDVK | GEVAGTFDI | -0.43 -0.68 -1.02 -1.02 -0.93 -0.69 | 0 of 18 |
| 37 | GFDLNEYGIS | VIYADGVRTAYADSVK | GKVAGTFDV | 0.09 -0.09 -0.50 -0.06 -0.33 -0.50 | 0 of 18 |
| 38 | GFDLDEYGIS | VIYADGRRTAYVDSVK | GNQAGTFDV | -0.35 -0.54 -1.01 -0.69 -0.73 -0.50 | 0 of 18 |
| 39 | GFDLNEYGIS | VIYADGQRTYYADSVK | GENAGTFDL | -0.79 -0.69 -0.39 -0.68 -0.66 -0.50 | 0 of 18 |
| 40 | GFDLNEYGIS | VIYADGMRTAYSDSVK | GTVAGTFDQ | -1.64 -1.04 0.08 -0.52 -1.44 n.d. | 0 of 18 |
| 41 | GFDLNEYGIS | VIYADGKRKAYADSVK | GQNAGTFDV | -0.65 -0.50 -0.75 -0.89 -0.65 -0.77 | 2 of 18 (1.80) |
| 42 | GFDLNEYGIS | VIYADGMRTAYSDDVK | GNTAGTFDI | -0.77 -0.83 -1.03 -0.67 -0.64 -0.50 | 1 of 18 (2.32) |
| 43 | GFDLDEYGIS | VIYADGMRTFYADSVK | GETAGTFDI | -0.51 -0.41 0.48 -0.35 -0.55 -0.29 | 0 of 18 |
| 44 | GFDLNEYGIS | VIYADGMRTYYADSVK | GNTAGTFDQ | -0.22 -0.61 -0.37 -0.54 -0.29 -0.26 | 1 of 18 (2.22) |
| 45 | GFDLNEYGIS | VIYADGVRTYYSDSVK | GNVAGTFDV | -0.33 -0.85 -0.38 -1.15 -0.45 -0.33 | 0 of 18 |

The 6 strongest on average among those seen in every replicate, once more:

{"CDR-H1": "GFDLDEYGIS", "CDR-H2": "VIYADGKRTAYSDSVK", "CDR-H3": "GNVAGTFDQ", "log10 Kd, replicates": "-0.85 -1.10 -0.99 -1.16 -1.67 -0.85", "signal with controls": "0 of 18"}
{"CDR-H1": "GFDLNEYGIS", "CDR-H2": "VIYADGQRKAYADSVK", "CDR-H3": "GENAGTFDI", "log10 Kd, replicates": "-0.86 -0.77 -0.91 -1.01 -1.00 -0.82", "signal with controls": "0 of 18"}
{"CDR-H1": "GFDLDEYGIS", "CDR-H2": "VIYADGMRTAYADDVK", "CDR-H3": "GNVAGTFDL", "log10 Kd, replicates": "-0.76 -0.61 -1.43 -1.13 -1.09 -0.18", "signal with controls": "0 of 18"}
{"CDR-H1": "GFDLNEYGIS", "CDR-H2": "VIYADGMRTAYSDDVK", "CDR-H3": "GEVAGTFDI", "log10 Kd, replicates": "-0.43 -0.68 -1.02 -1.02 -0.93 -0.69", "signal with controls": "0 of 18"}
{"CDR-H1": "GFDLNEYGIS", "CDR-H2": "VIYADGKRTAYSDSVK", "CDR-H3": "GQNAGTFDI", "log10 Kd, replicates": "-0.86 -0.82 -0.95 -0.96 -0.91 -0.18", "signal with controls": "0 of 18"}
{"CDR-H1": "GFDLNEYGIS", "CDR-H2": "VIYADGMRTAYSDDVK", "CDR-H3": "GNTAGTFDI", "log10 Kd, replicates": "-0.77 -0.83 -1.03 -0.67 -0.64 -0.50", "signal with controls": "1 of 18 (2.32)"}

Reference: Li et al. 2023, doi:10.1038/s41467-023-39022-2. File: FLAb, binding data.